The text below walks through data of US4857530A, “Substituted quinazolinones as anticancer agents” (Warner-Lambert Company, priority 1987, dated 1989).

Molecules are shown by their SMILES.

In this experiment the test system is L1210 murine leukemia cell line. Put plainly: growth inhibition of L1210 murine leukemia cell line in vitro. The class given is cell-based. As to conditions: Mus musculus, L1210, 72 h. Here is the method:
The compounds of formula I were also tested against the L1210 murine leukemia cell line in vitro.
A cell culture of the L1210 murine leukemia cell line is grown in RPMI 1640 culture medium supplemented with 5% fetal bovine serum containing gentamicin (50 micrograms per milliliter). Dilutions of the test compound are prepared in the appropriate solvent and 20 microliters of each dilution are added to a 24-well Linbro tissue culture plate, followed by the addition of 2.0 ml of cell suspension containing 3×10^4 cells/milliliter. Solvent and medium controls are included in each test.
After incubation at 37° C. for three days in 5% CO2, the contents of each well are removed and the cells are counted in a ZBI Coulter counter.

`C#CCN(Cc1ccc2nc(N)[nH]c(=O)c2c1)c1ccc(F)cc1` [Example 2f, 2-Amino-6-[[(4-fluorophenyl)-2-propynylamino]methyl]-4(3H)-quinazolinone] came in with a half-inhibitory concentration (IC50) of 26.1 µM.
